US20120258076A1, “METHOD FOR CHARACTERIZING HOST IMMUNE FUNTION BY EX VIVO INDUCTION OF OFFENSIVE AND DEFENSIVE IMMUNE MARKERS” (HITACHI CHEMICAL RESEARCH CENTER, INC., priority 2009, published 2012)
Where “and” joins values, the source holds several entries; their conditions need not be identical. Equal entries are not always repeated.

Experiments:
Type in all cases: cell-based, human
whole blood [1] = test: Leukocyte function by ex vivo stimulation of whole blood with rIL-2 or zymosan (Table 2); settings: rIL-2 100 ng/mL, 4 hours at 37° C., vs control samples
Protocol: (§1) Whole blood samples were collected from healthy human adults. Blood samples were heparinized when collected and placed into several individual tubes for an induction time course study. Eighteen equal volume aliquots from each tube were then stimulated with either phosphate buffered saline (PBS), rIL-2 at 100 ng/mL, or phytohemagglutinin (PHA). The aliquots were incubated at 37° C. for 0, 1, 2, 4, 8, or 20 hours. After incubation, samples were stored at −80° C. until analysis. Each sample was stimulated and analyzed in triplicate. mRNA encoding beta-actin, IL-2, IL-2 receptor type a (CD25) and IL-2 receptor type b (CD122) were measured according to the methods described in Mitsuhashi M, et al., Clin Chem 52:634-642 (2006), which is incorporated in its entirety by reference herein.
Briefly, 96-well filterplates were assembled with leukocyte reduction membranes (Leukosorb; Pall) and placed over oligo(dT)-immobilized collection plates. 150 μL of 5 mmol/L Tris (pH 7.4) was applied to wet the filter membranes. After centrifugation at 120 g for 1 min at 4° C. to remove the Tris solution from the membranes, 50 μL of the stimulated whole blood samples was applied to each well and immediately centrifuged at 120 g for 2 min at 4° C. The wells were then washed once with 300 μL of phosphate-buffered saline. After centrifugation at 2000 g for 5 min at 4° C. to remove the saline solution, 60 μL of stock lysis buffer [5 g/L N-lauroylsarcosine, 4× standard saline citrate, 10 mmol/L Tris-HCl (pH 7.4), 1 mmol/L EDTA, 1 mL/L IGEPAL CA-630 (substitute of NP-40), 1.79 mol/L guanidine thiocyanate (all from Sigma)], supplemented with 10 mL/L 2-mercaptoethanol (Bio-Rad), 0.5 g/L proteinase K (Pierce), 0.1 g/L salmon sperm DNA (5 Prime Eppendorf/Brinkman), 0.1 g/L Escherichia coli tRNA (Sigma), 5 nmol/L each of the specific reverse primers, and 10^10 molecules/L of synthetic RNA34 (as external control), was added to each well of the filterplates. The plates were then incubated at 37° C. for 10 min, placed over oligo(dT)-immobilized collection microplates (GenePlate; RNAture), and centrifuged at 2000 g for 5 min at 4° C. After overnight storage at 4° C., the microplates were washed 3 times with 100 μL of plain lysis buffer and then 3 times with 150 μL of wash buffer [0.5 mol/L NaCl, 10 mmol/L Tris (pH 7.4) 1 mmol/L EDTA] at 4° C.
cDNA was synthesized directly in each well by addition of 30 μL of buffer containing 1× reverse transcription buffer [50 mM KCl, 10 mM Tris-HCl (pH 8.3), 5.5 mM MgCl2, 1 nL/μL Tween 20], 1.25 mM each deoxynucleoside triphosphate, 4 units of rRNasin, and 80 U of MMLV reverse transcriptase (Promega; without primers) and incubation at 37° C. for 2 h. From each 30 μL reaction, 4 μL of cDNA was transferred directly to 384-well PCR plates, and 5 μL of TaqMan universal master mixture (Applied Biosystems) and 1 μL of 5 μM each of the forward and reverse primers for an infection-associated marker or beta-actin (see Table 1) were added. Primer sequences for ACTB (β-actin) were also published previously (Mitsuhashi M, et al. Pharm Res. 25:1116-1124, 2008), which is incorporated in its entirety by reference herein. PCR was carried out in a PRISM 7900HT (Applied Biosystems), with 1 cycle of 95° C. for 10 min followed by 45 cycles of 95° C. for 30 s, 55° C. for 30 s, and 60° C. for 1 min. Each gene was amplified in separate wells. The cycle threshold (Ct), i.e., the cycle at which certain amounts of PCR products (based on fluorescence) were generated, was determined with analytical software (SDS; Applied Biosystems). The Ct of each mRNA was subtracted with that of ACTB to calculate ΔCt, and % ACTB was calculated by 2^−ΔCt×100.
Samples were generally prepared and stimulated as described above, with rIL-2 used at 100 ng/ml and zymosan used at 1.5 mg/mL and stimulation was for four (4) hours at 37° C.

whole blood [2] = test: Time course of mRNA induction in stimulated whole blood (FIG. 1); settings: whole blood of healthy adults, 37° C., 0-20 hours, rIL-2 100 ng/mL or PHA
Protocol: as §1, with “herein. […]” for “herein.”
cDNA was synthesized directly in each well by addition of 30 μL of buffer containing 1× reverse transcription buffer [50 mM KCl, 10 mM Tris-HCl (pH 8.3), 5.5 mM MgCl2, 1 nL/μL Tween 20], 1.25 mM each deoxynucleoside triphosphate, 4 units of rRNasin, and 80 U of MMLV reverse transcriptase (Promega; without primers) and incubation at 37° C. for 2 h. […] The cycle threshold (Ct), i.e., the cycle at which certain amounts of PCR products (based on fluorescence) were generated, was determined with analytical software (SDS; Applied Biosystems). […]

heparinized whole blood = test: Leukocyte function profile of control patient (Table 5), ex vivo stimulation of whole blood; settings: healthy control subject, statistically significant
Protocol: Anti-T cell receptor α/β chain (TCR) monoclonal antibody (IgG1K) and control mouse IgG1K were obtained from BioLegend (San Diego, Calif., USA). Reverse transcriptase, dNTP, and RNasin were purchased from Invitrogen (Carlsbad, Calif., USA). All other chemicals were purchased from Sigma-Aldrich (St. Louis, Mo., USA). Immune complex (heat aggregated IgG, HAG) was prepared by heating human IgG at 63° C. for 15 min as described previously (Ostreiko et al., 1987). In 8-well strip microtubes, 1.2 μl each of phytohemagglutinin-L (2 mg/ml), HAG (10 mg/ml), lipopolysaccharide (LPS) (0.5 mg/ml), zymosan A (75 mg/ml), recombinant interleukin 2 (rIL2) (5 μg/ml), phosphate buffered saline (PBS), anti-TCR antibody (50 μg/ml), and control IgG (50 μg/ml), were added respectively into 8 wells, and stored at −80° C. until use.
Heparinized whole blood samples were obtained from Apex Research Institute (Tustin, Calif., USA) after Institutional Review Board approvals. In order to equalize post-blood collection condition, blood samples were stored at 4° C. overnight. Next morning, blood was decanted into a reservoir and using an 8-well multi-channel pipette, 60 μl each of blood was dispensed into 3 strips containing the control agents or stimulants described above (FIG. 5A). The blood volume needed for this test was 1.44 ml (60 μl/well×8 wells×3 strips (triplicate)). […]

## rIL-2: recombinant interleukin-2, stimulating agent for both offensive and defensive immune markers
Whole blood [1]
  ACTB mRNA Avg. (control): 0.9088 fold
  CD16 mRNA Avg. (offensive): 4-8 fold and 6.1303 fold
  CTLA4 (1st Primer) mRNA Avg. (defensive): 1.0843 fold
  GARP mRNA Avg. (defensive): 0.7404 fold
  IFNγ mRNA Avg. (offensive): 260 fold and 260.48 fold
  TNFα mRNA Avg. (offensive): 4-8 fold and 4.73 fold
Whole blood [2]; FIG. 1B
  IL-2 mRNA expression: not self-inducing
Whole blood [2]; FIG. 1C
  CD25 mRNA induction: induction
Heparinized whole blood
  ACTB mRNA fold increase: fold increase was <2, or >0.6
